From publication PMC5101583, “Natural and non-natural amino-acid side-chain substitutions: affinity and diffraction studies of meditope–Fab complexes” (Acta Crystallographica. Section F, Structural Biology …, 2016)

Molecular target: cetuximab IgG
Test: SPR; Biacore T100; cetuximab IgG immobilised on a CM5 chip by amine coupling (~5000 RU); peptides as analytes at 30 µl/min in HBS-EP+ (10 mM HEPES pH 7.4, 150 mM NaCl, 3 mM EDTA, 0.05% surfactant P20); the paper estimates a 38% error in Kd

Kd	Substance
1500 µM	meditope variant F3(2-BrF), GQ(2-Br-F)… (peptide)
> 5.4 µM	meditope variant F3(3-BrF), GQ(3-Br-F)… (peptide)
